Data taken from patent US20040023862A1, “Uses of bombesin receptor 3” (SmithKline Beedham p. l. c., priority 2000, published 2004).

Target: T1, endogenous human BRS-3 in NCI-N417 cells (Homo sapiens, UniProt P32247)
T1 construct: Agonist Pharmacology at the Endogenous Human BRS-3 in NCI-N417 Cells; endogenous in cells; host or cells: NCI-N417 cells
T1 sequence (P32247 1-399): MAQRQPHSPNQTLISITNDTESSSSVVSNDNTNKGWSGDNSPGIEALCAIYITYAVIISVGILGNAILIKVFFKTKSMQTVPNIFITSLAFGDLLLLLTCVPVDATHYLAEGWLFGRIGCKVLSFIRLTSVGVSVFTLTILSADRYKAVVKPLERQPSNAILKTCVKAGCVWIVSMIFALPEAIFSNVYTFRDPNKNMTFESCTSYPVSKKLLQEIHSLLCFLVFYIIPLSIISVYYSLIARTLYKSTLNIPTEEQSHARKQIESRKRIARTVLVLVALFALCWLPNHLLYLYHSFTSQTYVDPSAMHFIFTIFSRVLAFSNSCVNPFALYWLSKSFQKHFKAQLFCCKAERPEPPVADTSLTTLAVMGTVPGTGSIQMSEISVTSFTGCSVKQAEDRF
Assay: Agonist pharmacology, FLIPR intracellular calcium (Fluo-3AM) in NCI-N417 cells
Format: cell-based
Conditions: calcium mobilisation, ligands 10 pM-10 μM
Method: Agonist Pharmacology at the Endogenous Human BRS-3 in NCI-N417 Cells
NCI-N417 cells were seeded into Costar 96 well black walled plates (30,000 cells per well), cultured overnight in RPMI 1640 medium containing 10% foetal calf serum and 1% L-glutamine, and then loaded with the cytoplasmic calcium indicator Fluo-3AM (4 μM) in the presence of 2.5 mM probenecid at 37° C. for 60 min. The cells were then washed 4× with, and finally resuspended in, Tyrode's medium containing 2.5 mM probenecid. Fluorescence was then monitored using a FLIPR (λEX=488 nm, λEM=540 nm) before and after the addition of various ligands (10 pM-10 μM), as described previously (Smart et al (1999). Br. J. Pharmacol. 128:1-4).

Row | Substance | pEG50
1 | AcNMB(3-10) | 5.73 ± 0.03
2 | neuromedin B [NMB] | 5.65 ± 0.07
